Source: patent US9006242B2, “Substituted benzene compounds” (Epizyme, Inc., priority 2012, dated 2015)

By UniProt entry, the sequences of proteins in these tests, tags left out. Chains listed by the source or under a name are the forms on record and can include a tag or linker.
UniProt Q15910, other isoform, or with tags, fused parts or gaps: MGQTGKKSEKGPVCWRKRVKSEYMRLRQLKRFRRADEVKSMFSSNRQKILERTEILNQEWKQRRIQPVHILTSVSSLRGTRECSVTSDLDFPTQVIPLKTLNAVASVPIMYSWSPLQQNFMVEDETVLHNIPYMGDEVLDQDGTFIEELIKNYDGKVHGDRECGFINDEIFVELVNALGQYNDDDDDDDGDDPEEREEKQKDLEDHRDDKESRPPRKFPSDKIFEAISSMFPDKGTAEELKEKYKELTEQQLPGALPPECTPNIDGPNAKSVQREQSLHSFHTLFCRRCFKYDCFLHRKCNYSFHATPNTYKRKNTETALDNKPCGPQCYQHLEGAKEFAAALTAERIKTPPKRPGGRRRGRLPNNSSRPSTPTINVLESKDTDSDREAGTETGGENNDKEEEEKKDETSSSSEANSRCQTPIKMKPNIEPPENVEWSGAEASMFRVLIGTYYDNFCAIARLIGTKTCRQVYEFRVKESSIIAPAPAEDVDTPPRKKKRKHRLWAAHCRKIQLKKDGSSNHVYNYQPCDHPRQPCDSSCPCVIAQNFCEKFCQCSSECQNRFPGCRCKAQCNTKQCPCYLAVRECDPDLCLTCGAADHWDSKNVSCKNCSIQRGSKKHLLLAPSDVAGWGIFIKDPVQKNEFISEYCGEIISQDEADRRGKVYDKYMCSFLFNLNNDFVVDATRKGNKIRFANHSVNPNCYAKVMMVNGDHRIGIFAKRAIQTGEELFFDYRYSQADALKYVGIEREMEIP

Tests used:
EZH2 (PRC2 complex) = EZH2 (PRC2 complex) (Homo sapiens (Human), UniProt Q15910); assay: PRC2 enzyme assay on peptide substrate (EZH2 peptide v2)
Karpas-422 xenograft = assay: Efficacy study in Karpas-422 xenograft model; type: in vivo, mice
[1] = mouse, in vivo, po

Row | SMILES | IC50 (EZH2 (PRC2 complex)) [nM] | tumors large enough for analysis at day 28 (Karpas-422 xenograft; 250 mg/kg BID x28, p.o.) | anti-tumor effect in Karpas-422 xenograft model (in words) (Karpas-422 xenograft; oral, BID, up to 28 days, 62.5-500 mg/kg) | tolerability (in words) [1]
1 | CCN(c1cc(-c2ccc(OCCOC)cc2)cc(C(=O)NCc2c(C)cc(C)[nH]c2=O)c1C)[C@H]1CC[C@H](N(C)C)CC1 [Compound 1, N-((4,6-dimethyl-2-oxo-1,2-dihydropyridin-3-yl)methyl)-5-(((trans)-4-(dimethylamino)-cyclohexyl)(ethyl)-amino)-4′-(2-methoxyethoxy)-4-methyl-[1,1′-biphenyl]-3-carboxamide] | < 5 |  |  | 
2 | CCN(c1cc(-c2ccc(CN3CCOCC3)cc2)cc(C(=O)NCc2c(C)cc(C)[nH]c2=O)c1C)C1CCOCC1 [Compound A, N-((4,6-dimethyl-2-oxo-1,2-dihydropyridin-3-yl)methyl)-5-(ethyl(tetrahydro-2H-pyran-4-yl)amino)-4-methyl-4′-(morpholinomethyl)-[1,1′-biphenyl]-3-carboxamide, reference compound] |  | too small for analysis | tumor stasis and regression | well tolerated
